Apparent affinities of Ab-14 variants for a coronavirus HR2 peptide

From the AlphaSeq antibody data of Li et al. 2023 (doi:10.1038/s41467-023-39022-2), copy in the FLAb collection.

The target is the same throughout: PDVDLGDISGINAS, from the HR2 region of SARS-CoV-2 spike.

The variants keep the heavy chain, the linker and the frameworks of Ab-14 (scFv order VH, the linker GGGGSGGGGSGGGGS, VL).
VH: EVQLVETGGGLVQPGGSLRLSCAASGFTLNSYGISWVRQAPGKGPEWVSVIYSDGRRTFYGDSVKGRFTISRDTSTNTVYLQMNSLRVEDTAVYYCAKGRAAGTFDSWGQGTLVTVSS
VL: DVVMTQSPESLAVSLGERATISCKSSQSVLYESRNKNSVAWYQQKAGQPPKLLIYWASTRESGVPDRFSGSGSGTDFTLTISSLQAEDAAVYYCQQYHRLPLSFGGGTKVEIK

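The parent was found by panning a naive human phage display library on the peptide. The variants were designed computationally from a first round of random CDR variants and then made and measured. Several design methods are mixed in this list. Affinity was read by AlphaSeq, a pooled yeast mating assay with surface-displayed partners. Pairs that bind mate more often; barcode pairs of the diploids are counted by sequencing. The ratio of observed to expected reads was calibrated, replicate by replicate, on BCL2-family standards whose Kd was known from biolayer interferometry. The assay was run in six technical replicates.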

Changes read parent residue, position, new residue, counted from the first residue of the VL shown. Variants here have at most six changes. Values are apparent Kd, the geometric mean of the replicates that gave a signal; lower means stronger binding. "no signal" means that the variant was in the library but no mating with the target was seen in any replicate; the authors take this as a sign of poor binding, and no number exists. In the paper, a design with two or fewer of six values counts as a poor binder. The range of this assay differs from that of the first round, and the authors advise against merging the two. Nonspecific signal, from three strains lacking the peptide, appeared in 4% of pairings of all light chain designs, centred on 430 nM (5% of these signals below 38 nM); values are not corrected for it. Of ten entries with the parent sequence, four were seen in most replicates (averages 2.2 nM to 240 nM), three in one and three in none, so single entries are noisy.

Variant S25L+S26E+V29W+L30N+W56N showed 500 pM (6 of 6 replicates).
Variant S26Q+V29W+W56G+S62H showed 460 pM (6 of 6 replicates).
Variant S26N+K36H+W56E showed 13 nM (5 of 6 replicates).
Variant S25I+Q27S showed 3.7 nM (6 of 6 replicates).
Variant S25L+V29E+S38N+W56H showed 750 pM (6 of 6 replicates).
Variant S25F+N35T+K36V+W56N showed 580 pM (6 of 6 replicates).
Variant K24H+L30P+W56N+S62E+Q96D showed 640 pM (6 of 6 replicates).
Variant W56H+T59I+E61S+Q96A showed 30 nM (6 of 6 replicates).
Variant K24M+S33G+V39I+T59Q+H98E+L102I showed no signal (0 of 6 replicates).
Variant R34A+K36C showed 74 nM (6 of 6 replicates).
Variant S25V+V29W+S33E+W56N+T59Q showed 770 pM (6 of 6 replicates).
Variant S25M+S62L showed 5.4 nM (6 of 6 replicates).
Variant K24H+Q27P+L30P+S38N+W56N showed 310 pM (6 of 6 replicates).
Variant S25W+K36L+S62A+Q96V showed 29 nM (1 of 6 replicates).
Variant Q27I+V29Y+R34G+W56N+A57G showed 310 nM (6 of 6 replicates).
Variant N35C+S62N+H98S showed 44 nM (4 of 6 replicates).
Variant K24H+Q27P+W56N+S62E+S103Q showed 830 pM (6 of 6 replicates).
Variant K36Y+H98W+S103M showed 25 nM (1 of 6 replicates).
Variant S25L+L30M+Y31M+W56D showed 300 pM (6 of 6 replicates).
Variant S25L+V29N+N35M+W56N+E61L showed 3.1 nM (6 of 6 replicates).
Variant S25L+Q27W+V29W+W56G showed 680 pM (6 of 6 replicates).
Variant S25L+S26Q+V29T+W56H+E61C showed 3.2 nM (6 of 6 replicates).
Variant S25L+V29Q+S38A+W56Q showed 680 pM (6 of 6 replicates).
Variant S25V+T59E+S103I showed 5.2 nM (6 of 6 replicates).
Variant S25V+L30W+W56D showed 530 pM (6 of 6 replicates).
Variant H98Q showed 300 nM (3 of 6 replicates).
Variant S28Q+S62K+R99S showed no signal (0 of 6 replicates).
Variant S25L+V29Y+R34G+W56N+E61M showed 380 pM (6 of 6 replicates).
Variant Q27S+Y31G+K36A showed 29 nM (6 of 6 replicates).
Variant S25L+L30M+E32W+S33M+W56N showed 800 pM (6 of 6 replicates).
Variant S25L+S26V+Q27N+V29T+N35Q+W56H showed 4.7 nM (6 of 6 replicates).
Variant S25V+V29H+K36D+S38N+W56Q+T59Y showed 4.1 nM (6 of 6 replicates).
Variant S38P showed 580 nM (1 of 6 replicates).